Only a part is listed here, and it is no random draw. The source made the active and inactive calls.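 How the source made its calls: active means inhibition of aptamer binding above 40%, roughly 3 SD of noise, on plates passing a quality check; inactive means the rest.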

Amino acid sequences for entries named in this document (tags omitted).
UniProt P25098, whole entry: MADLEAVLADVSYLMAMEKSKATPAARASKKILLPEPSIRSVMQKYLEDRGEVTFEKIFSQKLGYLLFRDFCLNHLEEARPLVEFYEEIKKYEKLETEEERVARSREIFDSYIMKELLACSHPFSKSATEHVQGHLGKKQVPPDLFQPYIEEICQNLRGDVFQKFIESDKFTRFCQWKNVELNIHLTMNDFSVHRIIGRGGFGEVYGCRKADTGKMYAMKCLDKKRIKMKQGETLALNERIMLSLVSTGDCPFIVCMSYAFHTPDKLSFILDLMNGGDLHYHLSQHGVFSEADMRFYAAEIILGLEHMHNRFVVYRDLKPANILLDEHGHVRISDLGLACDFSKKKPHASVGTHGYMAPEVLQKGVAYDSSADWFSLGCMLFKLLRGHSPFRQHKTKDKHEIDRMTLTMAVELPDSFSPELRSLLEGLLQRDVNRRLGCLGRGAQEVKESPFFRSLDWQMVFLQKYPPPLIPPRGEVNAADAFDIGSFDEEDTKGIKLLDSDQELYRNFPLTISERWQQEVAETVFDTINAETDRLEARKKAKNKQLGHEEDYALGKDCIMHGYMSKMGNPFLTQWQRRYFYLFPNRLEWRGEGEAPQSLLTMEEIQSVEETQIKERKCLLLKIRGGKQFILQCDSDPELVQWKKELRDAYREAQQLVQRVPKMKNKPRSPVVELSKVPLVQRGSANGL

The experiment has as its target Beta-adrenergic receptor kinase 1 (Homo sapiens) (UniProt P25098). Nature of the experiment: compounds blocking aptamer binding on GRK2 – biochemical, human GRK2, bead flow cytometry, HTS, primary screen (AID 488847).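 Further: median bead fluorescence of bound FAM aptamer so fluorescent compounds give negative values.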 As to conditions: FAM-aptamer displacement from GRK2, at 10 µM, hits give high values.
In the case of `CCC(=O)N(c1ccccc1)C1(COC)CCN(CCn2nnn(CC)c2=O)CC1`, the inhibition of aptamer binding was inactive: 3%.

On to `CCC(=O)N(c1ccccc1)C1(COC)CCN(CCc2cccs2)CC1`, for which the inhibition of aptamer binding was inactive: 4%.

Values taken from PubChem BioAssay AID488847 (NMMLSC, 2010).
